This test concerns the target Neuronal acetylcholine receptor subunit alpha-7 (Rattus norvegicus, UniProt Q05941). Briefly: Alpha 7 nicotinic acetylcholine receptor binding activity in PC12 cells. In kind it is cell-based. The settings on record: pc-12.

Sequences of proteins named here, by UniProt entry; tags and fusion partners are left off. Residues count along the entry.
UniProt Q05941, 23-502 limits assumed: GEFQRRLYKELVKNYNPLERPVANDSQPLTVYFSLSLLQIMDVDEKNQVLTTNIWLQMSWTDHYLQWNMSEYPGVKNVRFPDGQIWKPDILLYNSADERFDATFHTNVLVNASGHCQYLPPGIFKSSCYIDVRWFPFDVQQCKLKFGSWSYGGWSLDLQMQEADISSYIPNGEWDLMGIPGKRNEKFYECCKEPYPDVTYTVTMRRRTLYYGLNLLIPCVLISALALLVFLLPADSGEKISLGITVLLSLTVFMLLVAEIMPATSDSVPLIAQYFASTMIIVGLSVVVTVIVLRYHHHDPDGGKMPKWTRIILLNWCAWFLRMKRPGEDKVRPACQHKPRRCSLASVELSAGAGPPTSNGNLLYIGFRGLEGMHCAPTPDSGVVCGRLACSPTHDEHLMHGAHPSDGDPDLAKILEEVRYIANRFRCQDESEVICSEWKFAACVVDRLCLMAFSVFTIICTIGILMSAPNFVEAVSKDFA

This note sets out measurements from ChEMBL document CHEMBL1146809, “(+)-3-[2-(Benzo[b]thiophen-2-yl)-2-oxoethyl]-1-azabicyclo[2.2.2]octane as potent agonists for the alpha7 nicotinic acetylcholine receptor” (Bioorg Med Chem Lett, 2004).

Structures are written as SMILES.

The molecule `O=C(OC1CN2CCC1CC2)c1ccccc1` (stereo unspecified) yielded an IC50 of 2600 nM.

Usually IC50 stands for the midpoint of a concentration-inhibition curve.
